# Literature values, collected in patent EP2456327B1, “A PROCESS FOR PRODUCING WATER ENRICHED WITH NATURAL OR[…], STILL WATER OBTAINED BY THE SAID PROCESS, COSMETIC AND THERAPEUTIC USE OF SAID WATER” (SOCIETE ANONYME DES EAUX MINERALES D'EVIAN, "S.A.E.M.E", priority 2009, dated 2011).
# Like-named read-outs stand apart in the source and are kept apart here.
# Experiments:
# [1] = Martin, The Journal of Nutrition, Health & Aging, 2007
substance,measurement,setting,value
orthosilicic acid,solubility,4°C and same pH (7.0),85 µg/mL
same,solubility,20°C and a pH of 7.0,115 µg/mL
same,solubility in water,"25°C and neutral pH, expressed in milligrams of SiO2 per liter of water",around 120 mg/l
same,"absorbed, of the total ingested amount",[1],> 50%
